Molecular target: Adenosine A2 receptor (Rattus norvegicus, UniProt P29276+P30543)
Format: protein assay

Chains of the proteins cited; added tags and fusions are not shown. Lines headed by an entry give the natural chain unless they say otherwise; changes in a name come on top.
UniProt P29276: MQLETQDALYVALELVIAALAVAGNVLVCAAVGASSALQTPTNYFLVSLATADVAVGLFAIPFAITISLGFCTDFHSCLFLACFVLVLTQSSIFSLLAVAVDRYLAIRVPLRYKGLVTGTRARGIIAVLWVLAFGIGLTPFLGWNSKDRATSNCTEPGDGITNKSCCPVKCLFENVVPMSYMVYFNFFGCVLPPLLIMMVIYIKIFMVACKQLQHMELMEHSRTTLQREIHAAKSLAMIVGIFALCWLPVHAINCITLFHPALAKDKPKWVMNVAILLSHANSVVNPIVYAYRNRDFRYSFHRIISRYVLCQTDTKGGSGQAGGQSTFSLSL
UniProt P30543: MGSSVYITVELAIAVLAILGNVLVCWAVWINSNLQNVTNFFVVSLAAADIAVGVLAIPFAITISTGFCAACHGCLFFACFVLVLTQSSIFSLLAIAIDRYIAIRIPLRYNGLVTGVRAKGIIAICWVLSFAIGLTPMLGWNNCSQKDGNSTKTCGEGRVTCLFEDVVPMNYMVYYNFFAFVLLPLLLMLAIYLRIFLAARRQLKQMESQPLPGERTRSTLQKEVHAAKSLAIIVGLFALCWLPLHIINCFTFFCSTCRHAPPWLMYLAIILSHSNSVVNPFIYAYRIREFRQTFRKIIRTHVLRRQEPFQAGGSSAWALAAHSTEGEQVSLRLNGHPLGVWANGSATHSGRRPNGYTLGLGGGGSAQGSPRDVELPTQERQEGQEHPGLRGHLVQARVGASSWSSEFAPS

Ki: 2.4 nM
SMILES: CCCCC#Cc1nc(N)c2ncn([C@@H]3O[C@H](CO)[C@@H](O)[C@H]3O)c2n1

Source: ChEMBL document CHEMBL1125505, “Nucleosides and nucleotides. 112. 2-(1-Hexyn-1-yl)adenosine-5'-uronamides: a new entry of selective A2 adenosine receptor agonists with potent antihypertensive activity” (J Med Chem, 1992)
